PubChem BioAssay AID489023 (Sanford-Burnham Center for Chemical Genomics, 2010)

Tested on: 697B cells, BCR-induced NF-kB luciferase reporter luminescence
Assay: B-cell receptor NF-kB reporter inhibition – 697B cells, luciferase luminescence, dose response (AID 489023)

CNC(=O)c1cc(Oc2ccc(NC(=O)Nc3ccc(Cl)c(C(F)(F)F)c3)cc2)ccn1
IC50: 6.58 µM
